# Test system: GABAA receptor (GABA-activated current in DRG neurons)
# Conditions: rat DRG neuron, whole-cell patch clamp, n=6, FIG. 2
smiles,measurement,value
"CN1C(=O)CN=C(c2ccccc2)c2cc(Cl)ccc21 [diazepam, reference compound]",Effect on GABA-activated current,enhancement of GABA effects
